Earlier results, collected in PMC2374394, “Relationships between hydrophobicity, reactivity, accumulation and peripheral nerve toxicity of a series of platinum drugs” (British Journal of Cancer, 2000).

Test system: patients
Conditions: ref Machover et al, 1996; cited from earlier work

O=C1[O][Pt-2]2([NH2+]C3CCCC[C@H]3[NH2+]2)[O]C1=O (stereo partly drawn) [Oxaliplatin, R,R-(DACH)Pt(oxalato)]
Incidence of neurotoxicity in patients % (95% CI): 97 (92-99) %
